Cyclic peptide permeability, from CycPeptMPDB

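Lipid, pH, incubation time, direction and concentration are not recorded in the data file. The list need not hold all peptides of the study. Peptides that the database sets to -10, its floor, are left out.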

PAMPA is the parallel artificial membrane permeability assay, which has no cells and reads passive diffusion. Values are log10 P with P in cm/s, so -5 is more permeable than -7.

{"smiles": "CCCC[C@@H]1NC(=O)[C@H](CC(C)C)NC(=O)CN(CC2CCOCC2)C(=O)[C@@H](Cc2ccccc2)NC(=O)CN(CC)C(=O)[C@@H]2CCCN2C1=O", "PAMPA (log10 cm/s)": "-7.24"}
{"smiles": "CCCC[C@@H]1NC(=O)[C@H](CC(C)C)N(C)C(=O)CN(CC2CCOCC2)C(=O)[C@H](Cc2ccccc2)NC(=O)CN(CCCOC(C)C)C(=O)[C@H]2CCCN2C1=O", "PAMPA (log10 cm/s)": "-5.00"}
{"smiles": "CCCC[C@@H]1NC(=O)[C@@H](CC(C)C)N(C)C(=O)CN(CC2CCCCC2)C(=O)[C@@H](C)NC(=O)CN(CC)C(=O)[C@H]2CCCN2C1=O", "PAMPA (log10 cm/s)": "-5.57"}
{"smiles": "CCCC[C@@H]1NC(=O)[C@H](CC(C)C)NC(=O)CN(CC2CCOCC2)C(=O)[C@@H](Cc2ccccc2)NC(=O)CN(Cc2ccc3c(c2)OCO3)C(=O)[C@@H]2CCCN2C1=O", "PAMPA (log10 cm/s)": "-6.17"}
{"smiles": "CCCC[C@@H]1NC(=O)[C@@H](CC(C)C)NC(=O)CN(CC2CCOCC2)C(=O)[C@H](Cc2ccccc2)NC(=O)CN(CCCOC(C)C)C(=O)[C@@H]2CCCN2C1=O", "PAMPA (log10 cm/s)": "-5.56"}
{"smiles": "CCCC[C@@H]1NC(=O)[C@H](CC(C)C)N(C)C(=O)CN(CC2CCOCC2)C(=O)[C@@H](Cc2ccccc2)NC(=O)CN(CC)C(=O)[C@H]2CCCN2C1=O", "PAMPA (log10 cm/s)": "-6.92"}
{"smiles": "CCCC[C@@H]1NC(=O)[C@H](CC(C)C)NC(=O)CN(CC2CCOCC2)C(=O)[C@H](Cc2ccccc2)NC(=O)CN(Cc2ccc3c(c2)OCO3)C(=O)[C@@H]2CCCN2C1=O", "PAMPA (log10 cm/s)": "-5.34"}
{"smiles": "CCCCCN1CC(=O)N(C)[C@H](CC(C)C)C(=O)N[C@@H](CCCC)C(=O)N2CCC[C@@H]2C(=O)N(CC)CC(=O)N[C@H](Cc2ccccc2)C1=O", "PAMPA (log10 cm/s)": "-5.01"}
{"smiles": "CCCC[C@@H]1NC(=O)[C@@H](CC(C)C)N(C)C(=O)CN(CC2CCOCC2)C(=O)[C@H](Cc2ccccc2)NC(=O)CN(CC)C(=O)[C@@H]2CCCN2C1=O", "PAMPA (log10 cm/s)": "-5.46"}
{"smiles": "CCCCCN1CC(=O)N[C@@H](CC(C)C)C(=O)N[C@@H](CCCC)C(=O)N2CCC[C@H]2C(=O)N(CCCOC(C)C)CC(=O)N[C@H](C)C1=O", "PAMPA (log10 cm/s)": "-6.45"}
{"smiles": "CCCC[C@@H]1NC(=O)[C@H](CC(C)C)N(C)C(=O)CN(CC2CCOCC2)C(=O)[C@@H](C)NC(=O)CN(Cc2ccc3c(c2)OCO3)C(=O)[C@@H]2CCCN2C1=O", "PAMPA (log10 cm/s)": "-6.54"}
{"smiles": "CCCCCN1CC(=O)N[C@H](CC(C)C)C(=O)N[C@@H](CCCC)C(=O)N2CCC[C@H]2C(=O)N(Cc2ccc3c(c2)OCO3)CC(=O)N[C@@H](Cc2ccccc2)C1=O", "PAMPA (log10 cm/s)": "-5.26"}
{"smiles": "CCCC[C@@H]1NC(=O)[C@@H](CC(C)C)NC(=O)CN(CC2CCCCC2)C(=O)[C@H](C)NC(=O)CN(CC)C(=O)[C@@H]2CCCN2C1=O", "PAMPA (log10 cm/s)": "-5.90"}
{"smiles": "CCCC[C@@H]1NC(=O)[C@H](CC(C)C)N(C)C(=O)CN(CC2CCOCC2)C(=O)[C@@H](C)NC(=O)CN(CC)C(=O)[C@H]2CCCN2C1=O", "PAMPA (log10 cm/s)": "-7.92"}
{"smiles": "CCCC[C@@H]1NC(=O)[C@H](CC(C)C)NC(=O)CN(CC2CCCCC2)C(=O)[C@H](Cc2ccccc2)NC(=O)CN(CC)C(=O)[C@@H]2CCCN2C1=O", "PAMPA (log10 cm/s)": "-5.00"}
{"smiles": "CCCCCN1CC(=O)N(C)[C@H](CC(C)C)C(=O)N[C@@H](CCCC)C(=O)N2CCC[C@@H]2C(=O)N(CC)CC(=O)N[C@H](C)C1=O", "PAMPA (log10 cm/s)": "-5.99"}
{"smiles": "CCCC[C@@H]1NC(=O)[C@@H](CC(C)C)N(C)C(=O)CN(CC2CCOCC2)C(=O)[C@@H](C)NC(=O)CN(CC)C(=O)[C@@H]2CCCN2C1=O", "PAMPA (log10 cm/s)": "-7.68"}
{"smiles": "CCCCCN1CC(=O)N[C@H](CC(C)C)C(=O)N[C@@H](CCCC)C(=O)N2CCC[C@H]2C(=O)N(CCCOC(C)C)CC(=O)N[C@@H](Cc2ccccc2)C1=O", "PAMPA (log10 cm/s)": "-4.94"}
{"smiles": "CCCCCN1CC(=O)N[C@H](CC(C)C)C(=O)N[C@@H](CCCC)C(=O)N2CCC[C@@H]2C(=O)N(CCCOC(C)C)CC(=O)N[C@@H](C)C1=O", "PAMPA (log10 cm/s)": "-5.26"}
{"smiles": "CCCC[C@@H]1NC(=O)[C@H](CC(C)C)NC(=O)CN(CC2CCCCC2)C(=O)[C@H](Cc2ccccc2)NC(=O)CN(Cc2ccc3c(c2)OCO3)C(=O)[C@H]2CCCN2C1=O", "PAMPA (log10 cm/s)": "-5.71"}
{"smiles": "CCCCCN1CC(=O)N[C@@H](CC(C)C)C(=O)N[C@@H](CCCC)C(=O)N2CCC[C@@H]2C(=O)N(CCCOC(C)C)CC(=O)N[C@@H](C)C1=O", "PAMPA (log10 cm/s)": "-5.84"}
{"smiles": "CCCCCN1CC(=O)N[C@H](CC(C)C)C(=O)N[C@@H](CCCC)C(=O)N2CCC[C@@H]2C(=O)N(Cc2ccc3c(c2)OCO3)CC(=O)N[C@@H](Cc2ccccc2)C1=O", "PAMPA (log10 cm/s)": "-5.23"}

3 of these entries, quoted again:

{"smiles": "CCCC[C@@H]1NC(=O)[C@H](CC(C)C)NC(=O)CN(CC2CCCCC2)C(=O)[C@H](Cc2ccccc2)NC(=O)CN(Cc2ccc3c(c2)OCO3)C(=O)[C@H]2CCCN2C1=O", "PAMPA (log10 cm/s)": "-5.71"}
{"smiles": "CCCCCN1CC(=O)N(C)[C@H](CC(C)C)C(=O)N[C@@H](CCCC)C(=O)N2CCC[C@@H]2C(=O)N(CC)CC(=O)N[C@H](C)C1=O", "PAMPA (log10 cm/s)": "-5.99"}
{"smiles": "CCCC[C@@H]1NC(=O)[C@H](CC(C)C)N(C)C(=O)CN(CC2CCOCC2)C(=O)[C@@H](C)NC(=O)CN(Cc2ccc3c(c2)OCO3)C(=O)[C@@H]2CCCN2C1=O", "PAMPA (log10 cm/s)": "-6.54"}

Values of Furukawa et al. 2016, doi:10.1021/acs.jmedchem.6b01246, as listed in CycPeptMPDB.